From patent publication EP4640678A1, “NOVEL OXO-PYRIDINE COMPOUND, PREPARATION METHOD THEREFOR, AND USE THEREOF” (Chengdu Shibeikang Biomedical Technology Co., Ltd., priority 2022, dated 2024)

Tested on: human plasma
Test: determination of in-vitro anticoagulant effect in human plasma (APTT)
Assay type: biochemical
Conditions: for APTT prolongation rate (%): healthy human plasma, 37°C for 3 min

Row | SMILES | APTT prolongation rate (%) (1 µM) | APTT prolongation rate (%) (3 µM) | APTT prolongation rate (%) (10 µM) | EC150 (estimated from the APTT test results in human plasma)
1 | [2H]c1c([2H])c(-n2cc(C(F)(F)F)nn2)c(-c2cc(=O)n([C@@H](CC)C(=O)Nc3ccc(C(N)=O)c(F)c3)cc2OC)c([2H])c1Cl [Compound 29, (S)-4-(2-(4-(5-chloro-2-(4-(trifluoromethyl)-1H-1,2,3-triazol-1-yl)phenyl-3,4,6-d3)-5-(methoxy)-2-oxopyridin-1(2H)-yl)butanamido)-2-fluorobenzamide] | 38.9% | 73.1% | 105.5% | –
2 | [2H]C([2H])([2H])Oc1cn([C@@H](CC)C(=O)Nc2ccc(C(N)=O)c(F)c2)c(=O)cc1-c1cc(Cl)ccc1-n1cc(C(F)(F)F)nn1 [Compound 21, (S)-4-(2-(4-(5-chloro-2-(4-(trifluoromethyl)-1H-1,2,3-triazol-1-yl)phenyl)-5-(methoxy-d3)-2-oxopyridin-1(2H)-yl)butanamido)-2-fluorobenzamide] | – | 76.8% | 147.6% | less than 1 µM
3 | CC[C@@H](C(=O)Nc1ccc(C(N)=O)c(F)c1)n1cc(OC)c(-c2cc(Cl)ccc2-n2cc(C(F)(F)F)nn2)cc1=O [Comparative example 1, (S)-4-(2-(4-(5-chloro-2-(4-(trifluoromethyl)-1H-1,2,3-triazol-1-yl)phenyl)-5-methoxy-2-oxopyridin-1(2H)-yl)butanamido)-2-fluorobenzamide, reference compound] | 40.1% | 69.8% | 130.1% | –
4 | [2H]C([2H])([2H])C([2H])([2H])[C@@H](C(=O)Nc1ccc(C(N)=O)c(F)c1)n1cc(OC)c(-c2cc(Cl)ccc2-n2cc(C(F)(F)F)nn2)cc1=O [Compound 28, (S)-4-(2-(4-(5-chloro-2-(4-(trifluoromethyl)-1H-1,2,3-triazol-1-yl)phenyl)-5-(methoxy)-2-oxopyridin-1(2H)-yl)butanamido-3,3,4,4,4-d5)-2-fluorobenzamide] | 35.8% | 63.3% | 102.9% | –
